# Binding of CDR-mutated scFvs to a peptide of the spike HR2 region

All variants were tested on one target, the spike HR2 peptide PDVDLGDISGINAS (SARS-CoV-2).

The variants keep the light chain, the linker and the frameworks of Ab-91 (scFv order VL, three GGGGS repeats, VH).
VL: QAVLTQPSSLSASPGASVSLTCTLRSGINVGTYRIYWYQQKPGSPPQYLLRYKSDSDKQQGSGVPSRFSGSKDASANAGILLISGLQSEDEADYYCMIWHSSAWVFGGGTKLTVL
VH: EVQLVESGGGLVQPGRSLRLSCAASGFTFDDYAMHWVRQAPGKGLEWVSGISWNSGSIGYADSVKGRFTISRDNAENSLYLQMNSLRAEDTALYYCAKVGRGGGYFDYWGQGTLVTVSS

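Phage display of a naive human antibody library on the peptide gave the parent. Library AAYL51 holds single substitutions and randomly drawn double and triple substitutions in the CDRs. Affinity was read by AlphaSeq, a pooled yeast mating assay with surface-displayed partners. The frequency of each diploid, read from paired DNA barcodes, reflects how well the two displayed proteins bind. Each replicate has its own calibration line, from reference interactions of the BCL2 family. The assay was run in three technical replicates.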

Substitutions are numbered in sequence along the VH above, starting at 1 (not Kabat).
Every variant below is changed at M34 of the VH (sequential numbering).
Values are log10 of the apparent Kd in nM; lower means stronger binding.
The mean shown is taken over the replicates in which the pair was detected.
A pair that was not seen in that replicate is written "ND"; this usually means weak binding, but a binder can also be missed.

F27R+M34P+G103T: ND, ND, 4.55.
M34P+H35L+G59P: ND, 5.64, ND.
M34W+I58R+S63M: 5.89, ND, ND.
M34E+Y105G: ND, ND, ND.
D30T+M34Q+Y60V: 3.87, 4.96, 5.44 (mean 4.76).
M34P+G59Q: ND, 4.63, 4.88 (mean 4.75).
M34G+G102P+D107F: ND, ND, ND.
G26E+M34Y+H35Y: ND, ND, 4.48.
M34H+S52I+G103P: 5.60, ND, ND.
Y32W+M34K+G102N: 4.70, 4.19, 4.48 (mean 4.46).
M34H+Y108R: ND, ND, ND.
M34H+S63E: ND, ND, ND.
M34N+K65T: ND, 4.67, ND.
M34G+F106Y+Y108E: ND, ND, ND.
M34Y+G103M+G104F: ND, ND, ND.
M34C+G100K: ND, ND, ND.
G26D+M34Q+N54Y: 5.32, ND, ND.
M34D+Y60H+G102D: ND, ND, ND.
Y32I+M34Q+V99K: ND, ND, ND.
M34F+G59V+A61M: 4.09, ND, 5.38 (mean 4.74).
M34C+S63K+V99Q: ND, ND, ND.
M34I+K65L+G104F: 3.77, ND, ND.
A33R+M34H+K65I: 5.23, ND, ND.
D31M+M34S+G50E: 4.84, ND, ND.
M34Y+Y60V+G104R: ND, ND, ND.
D31T+M34F: 1.84, 1.50, 1.38 (mean 1.58).
G26E+M34P+I51L: ND, ND, ND.
D31C+M34F+S63Y: ND, ND, ND.
M34D+I58L: ND, ND, ND.
M34R+G56I+Y105W: ND, ND, ND.
Y32V+M34F+G103C: 3.77, 4.60, 4.54 (mean 4.30).
A33S+M34S+S55V: ND, ND, 3.99.
M34R+G50H+Y105N: ND, 5.07, ND.
M34Q+H35S+G50T: ND, ND, ND.
M34N+G50A+Y60D: ND, 5.55, ND.
M34Q+S52L+D62T: ND, ND, ND.
M34D+N54Y+I58Y: 4.68, ND, ND.
M34R+N54M+F106M: 4.79, ND, ND.
M34A+G103E: ND, 3.13, ND.

Picked from the list: the 4 lowest averages where every replicate gave a value.

changes	log10 Kd, replicates	mean log10 Kd (nM)
D31T+M34F	1.84, 1.50, 1.38	1.58
Y32V+M34F+G103C	3.77, 4.60, 4.54	4.30
Y32W+M34K+G102N	4.70, 4.19, 4.48	4.46
D30T+M34Q+Y60V	3.87, 4.96, 5.44	4.76

Parent in this assay: reference entry 1.86, copy in this library 0.88.
Background: pairings of library AAYL51 with three empty control strains gave a value in 21% of cases (median 4.54, 5th percentile 3.26). Values in that range, when seen in few replicates, are hard to tell from nonspecific mating.

Reference: Engelhart et al. 2022, doi:10.1038/s41597-022-01779-4. File: FLAb, binding data.